{
  "source": "patent US20180185360A1",
  "about": "“CGRP RECEPTOR ANTAGONIST COMPOUNDS FOR TOPICAL TREATMENT OF SKIN DISORDERS” (GALDERMA RESEARCH & DEVELOPMENT, priority 2015, published 2018)",
  "system": "αCGRP-induced skin blood perfusion increase",
  "test": "CGRP-induced mice model of vasodilatation (Laser Doppler skin blood perfusion, right ear)",
  "type": "in vivo, BALB/c mice",
  "conditions": "after intravascular injection of αCGRP 20 μg/kg; p=0.0014",
  "experimental": "This study has been conducted on BALB/c mice, 5 mice per group have been used. Animals were topically treated with multiple doses of MK3207 (0.003% to 3%) in ethanol or with ethanol alone (20 μl, right ear), 90 minutes before the intravenous injection of αCGRP 20 μg/kg (2 hours before sampling).\nAnaesthesia was performed 15 minutes before the intravenous injection of αCGRP or NaCl 0.9%. Body temperature was maintained at 35° C.-37° C. using an automated heating pad. Images were obtained from Laser Doppler perfusion imaging PIM3 (Perimed, France). For each mouse, the skin blood perfusion was evaluated every minute on the right ear. The laser beam of the PIM3 scanned a skin area of 2×2 cm. Prior to the treatment, 2 scans were performed.\nThe duration of the recording was 22 minutes in total.\nThe blood perfusion is mapped as colour coded images at intervals of 1 min. For each mouse ear, the area corresponding to the internal part of the ear is defined and adjusted for each image. […]\nThe software calculates the erythematous surface (S) and the mean of the blood perfusion intensity (I) in this surface for the region of interest for all the images. […] For each time of kinetic, the relative area of blood perfusion is calculated as follow: Relative area of perfusion=(I/I ref)×S\nAnd the AUC is calculated from t=0 to t=15 min.",
  "data": [
    {"substance": "αCGRP: Calcitonin gene-related peptide, injected intravenously to induce vasodilatation (ACDTATCVTHRLAGLLSRSGGVVKNNFVPTNVGSKAF; Calcitonin gene-related peptide 1; UniProt P06881 83-119, looked up) [reference compound]", "values": [
      {"measurement": "increase of the basal blood perfusion in the skin", "result": 242, "unit": "%"}
    ]}
  ]
}
